SMILES strings stand for the structures.

Format in all cases: cell-based
One experiment concerns collagen 1A. Kind of experiment: Induction of collagen 1A. On the procedure: (§1) Higher elastin and collagen activity is indicative of anti-wrinkling or anti-aging effects. Activation of the antioxidant response element (ARE) pathway was also evaluated. The NF-E2-related factor (Nrf2) is a critical transcription factor in oxidative stress signaling. Nrf2 binds to the ARE and serves as a master regulator in cellular defense pathways. The ARE pathway mediates the transcriptional induction of a battery of genes that help to protect the cells against oxidative damage. Activation of the ARE promoter leads to more endogenous antioxidants and cell detoxification.

Another experiment concerns elastin. The experiment in a line: Induction of elastin. The method, then: as §1
In experiment [1] the test system is antioxidant response element (ARE) pathway. The experiment in a line: Activation of the antioxidant response element (ARE) pathway. The method, then: as §1

By fold induction is commonly meant the signal under treatment as a multiple of the control signal. Regarding `O=c1c(O)c(-c2ccc(O)c(O)c2)oc2cc(O)c(O)c(O)c12` [HI-9, quercetagetin], the fold induction at 10 µg/mL in the experiment with collagen 1A (final dose 10 μg/ml) was 1.6; in the experiment on elastin (final dose 10 μg/ml), under 1.3; in experiment [1] (final dose 10 μg/ml), under 1.3. The figures for the fold induction at 50 µg/mL (in the experiment on collagen 1A (final dose 50 μg/ml); in the experiment on elastin (final dose 50 μg/ml); in experiment [1] (final dose 50 μg/ml)) were under 1.3, 2 and under 1.3, respectively. Also, the results for the fold induction at 100 µg/mL (with collagen 1A (final dose 100 μg/ml); with elastin (final dose 100 μg/ml); in experiment [1] (final dose 100 μg/ml)) were under 1.3, 4 and under 1.3, respectively.

For the origin of these results see US12233073B2, “Skin care formulations and skin cancer treatment” (Regents of the University of Minnesota, priority 2017, dated 2025).
